Experimental data as given in PubChem BioAssay (NCI).
Some results for these compounds are left out of this collection, so the calls shown say nothing about other tests.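 Five concentrations, 48 hours, 96-well plates. Here, GI50 denotes the concentration required for 50% inhibition of growth. The concentration for full growth arrest is given as TGI.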

Tests used:
Assay in all cases: NCI-60 cell line screen, 48 h
786-0 renal = test system: 786-0 renal
A498 renal = test system: A498 renal
A549 NSCLC = test system: A549 NSCLC
ACHN renal = test system: ACHN renal
CAKI-1 renal = test system: CAKI-1 renal
CCRF-CEM leukemia = test system: CCRF-CEM leukemia
COLO 205 colon = test system: COLO 205 colon
DU-145 prostate = test system: DU-145 prostate
EKVX NSCLC = test system: EKVX NSCLC
HCC-2998 colon = test system: HCC-2998 colon
HCT-116 colon = test system: HCT-116 colon
HCT-15 colon = test system: HCT-15 colon
HL-60(TB) leukemia = test system: HL-60(TB) leukemia
HOP-62 NSCLC = test system: HOP-62 NSCLC
HOP-92 NSCLC = test system: HOP-92 NSCLC
HS 578T breast = test system: HS 578T breast
HT29 colon = test system: HT29 colon
IGROV1 ovarian = test system: IGROV1 ovarian
K-562 leukemia = test system: K-562 leukemia
KM12 colon = test system: KM12 colon
LOX IMVI melanoma = test system: LOX IMVI melanoma
M14 melanoma = test system: M14 melanoma
MALME-3M melanoma = test system: MALME-3M melanoma
MCF7 breast = test system: MCF7 breast
MDA-MB-231 breast = test system: MDA-MB-231 breast
MDA-MB-435 = test system: MDA-MB-435
MDA-N = test system: MDA-N
MOLT-4 leukemia = test system: MOLT-4 leukemia
NCI-H23 lung = test system: NCI-H23 lung
NCI-H322M lung = test system: NCI-H322M lung
NCI-H460 lung = test system: NCI-H460 lung
NCI-H522 lung = test system: NCI-H522 lung
NCI/ADR-RES ovarian = test system: NCI/ADR-RES ovarian
OVCAR-3 ovarian = test system: OVCAR-3 ovarian
OVCAR-4 ovarian = test system: OVCAR-4 ovarian
OVCAR-5 ovarian = test system: OVCAR-5 ovarian
OVCAR-8 ovarian = test system: OVCAR-8 ovarian
PC-3 prostate = test system: PC-3 prostate
RPMI-8226 leukemia = test system: RPMI-8226 leukemia
RXF 393 renal = test system: RXF 393 renal
SF-268 CNS = test system: SF-268 CNS
SF-295 CNS = test system: SF-295 CNS
SF-539 CNS = test system: SF-539 CNS
SK-MEL-2 melanoma = test system: SK-MEL-2 melanoma
SK-MEL-28 melanoma = test system: SK-MEL-28 melanoma
SK-MEL-5 melanoma = test system: SK-MEL-5 melanoma
SK-OV-3 ovarian = test system: SK-OV-3 ovarian
SN12C renal = test system: SN12C renal
SNB-19 CNS = test system: SNB-19 CNS
SR leukemia = test system: SR leukemia
SW-620 colon = test system: SW-620 colon
T-47D breast = test system: T-47D breast
TK-10 renal = test system: TK-10 renal
U251 CNS = test system: U251 CNS
UACC-257 melanoma = test system: UACC-257 melanoma
UACC-62 melanoma = test system: UACC-62 melanoma

Compound: C/C=C\C(O)(C(=O)OC1CN2CCC1CC2)C1CCCCC1 (configuration not stated)
- GI50 (786-0 renal): > 100 µM
- TGI (786-0 renal): > 100 µM
- GI50 (A498 renal): > 100 µM
- TGI (A498 renal): > 100 µM
- GI50 (A549 NSCLC): > 100 µM
- TGI (A549 NSCLC): > 100 µM
- GI50 (ACHN renal): > 100 µM
- TGI (ACHN renal): > 100 µM
- GI50 (CAKI-1 renal): > 100 µM
- TGI (CAKI-1 renal): > 100 µM
- GI50 (CCRF-CEM leukemia): > 100 µM
- TGI (CCRF-CEM leukemia): > 100 µM
- GI50 (COLO 205 colon): > 100 µM
- TGI (COLO 205 colon): > 100 µM
- GI50 (DU-145 prostate): > 100 µM
- TGI (DU-145 prostate): > 100 µM
- GI50 (EKVX NSCLC): > 100 µM
- TGI (EKVX NSCLC): > 100 µM
- GI50 (HCC-2998 colon): > 100 µM
- TGI (HCC-2998 colon): > 100 µM
- GI50 (HCT-116 colon): > 100 µM
- TGI (HCT-116 colon): > 100 µM
- GI50 (HCT-15 colon): > 100 µM
- TGI (HCT-15 colon): > 100 µM
- GI50 (HL-60(TB) leukemia): > 100 µM
- TGI (HL-60(TB) leukemia): > 100 µM
- GI50 (HOP-62 NSCLC): > 100 µM
- TGI (HOP-62 NSCLC): > 100 µM
- GI50 (HOP-92 NSCLC): 49.8 µM
- TGI (HOP-92 NSCLC): > 100 µM
- GI50 (HS 578T breast): > 100 µM
- TGI (HS 578T breast): > 100 µM
- GI50 (HT29 colon): > 100 µM
- TGI (HT29 colon): > 100 µM
- GI50 (IGROV1 ovarian): > 100 µM
- TGI (IGROV1 ovarian): > 100 µM
- GI50 (K-562 leukemia): > 100 µM
- TGI (K-562 leukemia): > 100 µM
- GI50 (KM12 colon): > 100 µM
- TGI (KM12 colon): > 100 µM
- GI50 (LOX IMVI melanoma): > 100 µM
- TGI (LOX IMVI melanoma): > 100 µM
- GI50 (M14 melanoma): > 100 µM
- TGI (M14 melanoma): > 100 µM
- GI50 (MALME-3M melanoma): > 100 µM
- TGI (MALME-3M melanoma): > 100 µM
- GI50 (MCF7 breast): > 100 µM
- TGI (MCF7 breast): > 100 µM
- GI50 (MDA-MB-231 breast): > 100 µM
- TGI (MDA-MB-231 breast): > 100 µM
- GI50 (MDA-MB-435): > 100 µM
- TGI (MDA-MB-435): > 100 µM
- GI50 (MDA-N): > 100 µM
- TGI (MDA-N): > 100 µM
- GI50 (MOLT-4 leukemia): > 100 µM
- TGI (MOLT-4 leukemia): > 100 µM
- GI50 (NCI-H23 lung): > 100 µM
- TGI (NCI-H23 lung): > 100 µM
- GI50 (NCI-H322M lung): > 100 µM
- TGI (NCI-H322M lung): > 100 µM
- GI50 (NCI-H460 lung): > 100 µM
- TGI (NCI-H460 lung): > 100 µM
- GI50 (NCI-H522 lung): > 100 µM
- TGI (NCI-H522 lung): > 100 µM
- GI50 (NCI/ADR-RES ovarian): > 100 µM
- TGI (NCI/ADR-RES ovarian): > 100 µM
- GI50 (OVCAR-3 ovarian): > 100 µM
- TGI (OVCAR-3 ovarian): > 100 µM
- GI50 (OVCAR-4 ovarian): > 100 µM
- TGI (OVCAR-4 ovarian): > 100 µM
- GI50 (OVCAR-5 ovarian): > 100 µM
- TGI (OVCAR-5 ovarian): > 100 µM
- GI50 (OVCAR-8 ovarian): > 100 µM
- TGI (OVCAR-8 ovarian): > 100 µM
- GI50 (PC-3 prostate): > 100 µM
- TGI (PC-3 prostate): > 100 µM
- GI50 (RPMI-8226 leukemia): > 100 µM
- TGI (RPMI-8226 leukemia): > 100 µM
- GI50 (RXF 393 renal): > 100 µM
- TGI (RXF 393 renal): > 100 µM
- GI50 (SF-268 CNS): > 100 µM
- TGI (SF-268 CNS): > 100 µM
- GI50 (SF-295 CNS): > 100 µM
- TGI (SF-295 CNS): > 100 µM
- GI50 (SF-539 CNS): > 100 µM
- TGI (SF-539 CNS): > 100 µM
- GI50 (SK-MEL-2 melanoma): > 100 µM
- TGI (SK-MEL-2 melanoma): > 100 µM
- GI50 (SK-MEL-28 melanoma): > 100 µM
- TGI (SK-MEL-28 melanoma): > 100 µM
- GI50 (SK-MEL-5 melanoma): > 100 µM
- TGI (SK-MEL-5 melanoma): > 100 µM
- GI50 (SK-OV-3 ovarian): > 100 µM
- TGI (SK-OV-3 ovarian): > 100 µM
- GI50 (SN12C renal): > 100 µM
- TGI (SN12C renal): > 100 µM
- GI50 (SNB-19 CNS): > 100 µM
- TGI (SNB-19 CNS): > 100 µM
- GI50 (SR leukemia): > 100 µM
- TGI (SR leukemia): > 100 µM
- GI50 (SW-620 colon): > 100 µM
- TGI (SW-620 colon): > 100 µM
- GI50 (T-47D breast): > 100 µM
- TGI (T-47D breast): > 100 µM
- GI50 (TK-10 renal): > 100 µM
- TGI (TK-10 renal): > 100 µM
- GI50 (U251 CNS): > 100 µM
- TGI (U251 CNS): > 100 µM
- GI50 (UACC-257 melanoma): > 100 µM
- TGI (UACC-257 melanoma): > 100 µM
- GI50 (UACC-62 melanoma): > 100 µM
- TGI (UACC-62 melanoma): > 100 µM
